Test system: B16 melanoma
Assay: In vivo antitumor activity against B16 melanoma (Table 10)
Conditions: Q3D × 3

Row | Compound | MST (median survival time) (1 mg/kg/day ip) | MST (median survival time) (2 mg/kg/day ip) | T/C (2 mg/kg/day ip, *2 significant, T/C ≥ 125%) | Body wt. change on day 5 (0.1 mg/kg/day ip) | MST (median survival time) (0.1 mg/kg/day ip) | T/C (0.1 mg/kg/day ip, significant if T/C ≥ 125%) | Body wt. change on day 5 (0.3 mg/kg/day ip) | MST (median survival time) (0.3 mg/kg/day ip) | T/C (0.3 mg/kg/day ip, significant if T/C ≥ 125%) | Body wt. change on day 5 (1 mg/kg/day ip) | T/C (1 mg/kg/day ip, *2 significant, T/C ≥ 125%) | Body wt. change on day 5 (3 mg/kg/day ip) | MST (median survival time) (3 mg/kg/day ip) | T/C (3 mg/kg/day ip, *2 significant, T/C ≥ 125%) | Body wt. change on day 5 (10 mg/kg/day ip) | MST (median survival time) (10 mg/kg/day ip) | T/C (10 mg/kg/day ip, *2 significant, T/C ≥ 125%)
1 | CO[C@@]12[C@H](COC(N)=O)C3=C(C(=O)C(C)=C(N)C3=O)N1C[C@@H]1N[C@@H]12 [Mitomycin C, reference compound] | 23.0 days | 34.5 days | 203% | – | – | – | – | – | – | – | – | – | – | – | – | – | –
2 | CCCCC/C=C/C=C\C=C/C(O)C(C)C(C/C=C/C1OC(=O)C=CC1O)OS(=O)(=O)O (stereo not drawn) [BU-3285T] | 22.5 days | – | – | +0.8 g | 18.5 days | 109% | +0.3 g | 20.0 days | 118% | +0.5 g | 132% | 0.0 g | 26.5 days | 156% | +0.5 g | 21.5 days | 126%

— US5036008A, “Antitumor antibiotic BU-3285T” (Bristol-Myers Company, priority 1990, dated 1991)
